Reference: US11666071B2, “Compound salt of N,N-dimethylglycine and an organic acid and composition and use thereof” (GUANGZHOU INSIGHTER BIOTECHNOLOGY CO., LTD., priority 2017, dated 2023)

Assay: High-humidity stability test (hygroscopic weight gain)
Type: physicochemical
Details: 25° C., RH 95%±1%

Substance | hygroscopic weight gain, Day 5 (%) | hygroscopic weight gain, Day 10 (%)
Zinc salt of N,N-dimethylglycine and benzoic acid [Sample 12] | 3.03 ± 0.23 | 3.54 ± 0.08
Calcium salt of N,N-dimethylglycine and benzoic acid [Sample 5] | 3.54 ± 0.39 | 3.59 ± 0.28
